## AlphaSeq binding of Ab-91 heavy chain variants to a spike HR2 peptide

All variants were tested on one target, the spike HR2 peptide PDVDLGDISGINAS (SARS-CoV-2).

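The starting antibody came from a phage panning campaign against this peptide. The library (AAYL51) carries one to three amino acid substitutions per variant, with no insertions or deletions. In AlphaSeq, yeast of one mating type display the scFv and yeast of the other type display the target. After mating in shaken culture at 30 °C for 16 h, diploids were selected and their barcode pairs sequenced. A regression on co-assayed BCL2-family reference pairs converts the normalised counts of each replicate to an apparent Kd. Each pool was mated in three replicate cultures.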

Ab-91 is the parent antibody, in scFv form: VL, then the linker GGGGSGGGGSGGGGS, then VH. The light chain is unchanged in all variants.
VL: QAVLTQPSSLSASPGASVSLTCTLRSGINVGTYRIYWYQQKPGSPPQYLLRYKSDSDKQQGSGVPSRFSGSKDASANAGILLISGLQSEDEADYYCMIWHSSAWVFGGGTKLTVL
VH: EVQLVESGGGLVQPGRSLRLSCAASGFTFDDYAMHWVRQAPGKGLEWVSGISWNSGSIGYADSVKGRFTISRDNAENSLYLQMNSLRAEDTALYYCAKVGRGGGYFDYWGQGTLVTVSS

The parent's heavy chain CDRs are GFTFDDYAMH, GISWNSGSIGYADSVK, VGRGGGYFDY; each variant's own CDRs replace them letter for letter. This list gathers variants with a substitution at G103 (VH, numbered from residue 1). Scale: log10 of Kd in nM, estimated from mating counts; low values are strong binders. Averages over replicates are reported, and they cover detected replicates only. An entry "nd" has no value in the source: the pair was not observed among the diploids in any replicate. This suggests poor binding but is not conclusive. Background: pairings of library AAYL51 with three empty control strains gave a value in 21% of cases (median 4.54, 5th percentile 3.26). Values in that range, when seen in few replicates, are hard to tell from nonspecific mating. Also given: how often the same scFv was detected with the empty control strains. For reference, the parent read 1.86 as the reference entry and 0.88 as a member of this library.

With GFTFDDYAMH | GISWNSGSIGYADSVG | VGRGAGYFDY the result was 2.33 (3 of 3 replicates; controls 2 of 9). With GFTFDDYAMH | GISWNSGSIGSADSVK | VGRGHGYFVY the result was nd (0 of 3 replicates; controls 0 of 9). With GFTFDDYAMH | GISWNSGSIGYADSVK | VGRGYGYFDW the result was nd (0 of 3 replicates; controls 0 of 9). Variant GFTFDDYAMH | GISWNSGSIGNADSVK | VGRGYGYFDY showed 4.32 (1 of 3 replicates; controls 4 of 9). Variant GFTADDYAMH | GISWNSGSIGYADSVK | VGRGIGYFDY showed nd (0 of 3 replicates; controls 1 of 9). Variant GFTFDDYAMH | GIPWNSGSIGKADSVK | VGRGMGYFDY gave 5.09 (2 of 3 replicates; controls 4 of 9). Variant GFTFDDYAMH | GISWNSGSIGYADSVK | VGRGPGKFDY showed 1.16 (3 of 3 replicates; controls 1 of 9). Variant GFTFDDYAMH | GISWNSNSIGYADSVK | VGRGKGYFDY showed 4.51 (3 of 3 replicates; controls 5 of 9).

With GFTFDTYAMH | GISWNSGSIGYADSVK | VGRGLGYFCY the result was nd (0 of 3 replicates; controls 0 of 9). Variant GFTFDDYAMK | GISWNSGSIGYADSIK | VGRGRGYFDY gave nd (0 of 3 replicates; controls 0 of 9). For GFTFDDYAMH | GISWNSGSIGYADGVK | VGRGEGMFDY, the assay gave nd (0 of 3 replicates; controls 0 of 9). With GFTFDDYADH | GISWNMGSIGYADSVK | VGRGYGYFDY the result was 5.88 (1 of 3 replicates; controls 3 of 9). Variant GHTFDDYAMH | GISWQSGSIGYADSVK | VGRGRGYFDY showed 5.31 (3 of 3 replicates; controls 7 of 9). With GFTFDDYAMH | GIVWNSGSIGYADSVK | VGRGRVYFDY the result was nd (0 of 3 replicates; controls 2 of 9). Variant GFTFDDYAMH | GISWNNGSIGYADYVK | VGRGSGYFDY gave nd (0 of 3 replicates; controls 0 of 9). With GFTFDDHAMH | GISWNSGSIGYADSVK | VGHGKGYFDY the result was 5.73 (1 of 3 replicates; controls 7 of 9).

Variant GFTFDDYAMH | GISWNSGSIGYADSVD | VGRGIGYLDY showed nd (0 of 3 replicates; controls 1 of 9). Variant GFTFDDYAFH | GISWNSGSIGYADSVM | VGRGTGYFDY gave 5.26 (1 of 3 replicates; controls 2 of 9). Variant GWTFDDYAMH | GISWNSGSIGRADSVK | VGRGVGYFDY gave nd (0 of 3 replicates; controls 2 of 9). Variant GFTFDDYAMH | GKSWNSGSIGEADSVK | VGRGRGYFDY gave 4.58 (2 of 3 replicates; controls 3 of 9). For GFTFDDYAMH | GISWNSGSIGYADSVK | VGRGSGWFDY, the assay gave 4.01 (1 of 3 replicates; controls 5 of 9). With GFTFDDYAMH | GISWNSGSIGYADSVK | VGHGIGYFDY the result was nd (0 of 3 replicates; controls 0 of 9). With GFTFDDYAMH | GISWNSGSISYADSVK | VGTGRGYFDY the result was nd (0 of 3 replicates; controls 1 of 9). Variant RFTFDDYAMH | GPSWNSGSIGYADSVK | VGRGKGYFDY showed 4.50 (2 of 3 replicates; controls 2 of 9).

Variant QFTFDDYAMH | GISWNSGSIGYADSVL | VGRGAGYFDY showed 4.58 (1 of 3 replicates; controls 4 of 9). Variant GFTFDDYAMH | GISWNSGSIGQADSVK | VGRGEGYFDY gave 1.11 (3 of 3 replicates; controls 0 of 9). Variant GFTFDDYAMH | GISWNSGSIGYADPPK | VGRGHGYFDY showed 5.83 (1 of 3 replicates; controls 4 of 9). Variant GFTFDDYAMH | GISWNSRSIGYADSVK | VGRGNGDFDY showed 3.96 (1 of 3 replicates; controls 1 of 9). With GFTFDDYAMH | GISWNSGSIGYALSVK | VFRGHGYFDY the result was nd (0 of 3 replicates; controls 0 of 9). Variant GFTFDDYAMH | GISWHSGSIGYADSVK | VGAGCGYFDY showed 5.39 (2 of 3 replicates; controls 6 of 9). Variant GFGFDDYAMH | GISWNSGSIGYADSVK | VGRGEGYFFY gave 4.87 (1 of 3 replicates; controls 2 of 9). Variant GFTFDDYAMH | GISWNSRSIGYADSVK | VGRGFGYFDK gave 4.91 (2 of 3 replicates; controls 2 of 9).

For GFTFDDYAMH | GISWNSGSIGYADSVK | VGRGLWYFDY, the assay gave nd (0 of 3 replicates; controls 0 of 9). With GFTFDDYAMH | GISWNSGSIGYADGVK | VGRGHGYFDY the result was 5.38 (1 of 3 replicates; controls 6 of 9). Variant GFTEDDYAMH | GISWNSGSIGYADSVI | VGRGKGYFDY gave nd (0 of 3 replicates; controls 0 of 9). For GFTFDDYAMH | GISWNSGSIGYADSVK | VGRGALYFDL, the assay gave 1.22 (3 of 3 replicates; controls 4 of 9). With GFTFPDYAHH | GISWNSGSIGYADSVK | VGRGRGYFDY the result was nd (0 of 3 replicates; controls 0 of 9). Variant GFTFHDYAMH | GISWNSGSIGYADSVF | VGRGEGYFDY gave 4.12 (1 of 3 replicates; controls 1 of 9). With GFTFDDYAMH | GISWNSGSIGEADSVK | VGRTCGYFDY the result was 5.53 (2 of 3 replicates; controls 3 of 9). For FFTFDDYAMH | GISWNSGSIGYADSEK | VGRGLGYFDY, the assay gave nd (0 of 3 replicates; controls 0 of 9).

Variant GFTFDDYAMH | GISWNSGSIGYADCIK | VGRGTGYFDY showed 1.53 (3 of 3 replicates; controls 2 of 9). Variant GFTFDDYAMH | GISWNFGSIGYADSVK | VGRAEGYFDY showed 3.87 (2 of 3 replicates; controls 4 of 9). With GFTFDHYAMH | GISRNSGSIGYADSVK | VGRGIGYFDY the result was 4.56 (2 of 3 replicates; controls 0 of 9). Variant GFTFDDYKMH | GISWNSGSIAYADSVK | VGRGCGYFDY gave nd (0 of 3 replicates; controls 3 of 9). Variant GFTFDDYAMH | GISWESGSIGYAQSVK | VGRGEGYFDY gave 4.99 (1 of 3 replicates; controls 1 of 9). Variant GFTFDDYAMH | IISWNSGSIGWADSVK | VGRGFGYFDY gave 4.66 (1 of 3 replicates; controls 1 of 9). Variant GFTFDDYAMH | GISWNSISIGYADSVK | VGRGRGYFDY showed 5.31 (3 of 3 replicates; controls 3 of 9).

For reference, 6 entries of the list once more:

CDR-H1	CDR-H2	CDR-H3	mean, log10 nM	seen in	signal with controls
GFTFDDYAMH	GISWNSGSISYADSVK	VGTGRGYFDY	nd	0 of 3	1 of 9
GFTFDDYAFH	GISWNSGSIGYADSVM	VGRGTGYFDY	5.26	1 of 3	2 of 9
GFTFDDYAMH	GISWNSGSIGYADSVK	VGRGALYFDL	1.22	3 of 3	4 of 9
GFTFDDYAMH	GISWHSGSIGYADSVK	VGAGCGYFDY	5.39	2 of 3	6 of 9
GFTFDDYAMH	GISWNSGSIGYADCIK	VGRGTGYFDY	1.53	3 of 3	2 of 9
GWTFDDYAMH	GISWNSGSIGRADSVK	VGRGVGYFDY	nd	0 of 3	2 of 9

Values reported by Engelhart et al. 2022, doi:10.1038/s41597-022-01779-4 (FLAb copy).